This is an account of results in PubChem BioAssay AID651819 (National Center for Advancing Translational Sciences (NCATS), 2012).

Only a part is listed here, and it is no random draw. Active and inactive are the calls of the source. No stated cut-off is given here; in the data, active means activity change below about -30%; inactive means the rest.
On the % scale 0 is the no-effect control and ±100 the full control effect.

This experiment concerns cytosolic chaperonin (CCT/TRiC complex). In words: High-Throughput Screening for Modulators of Cytosolic Chaperonin Activity. Conditions: purified chaperonin ATPase assay, HTRF ADP detection, 30 min; stronger effect = lower value. An excerpt: The eukaryotic chaperonin named TRiC (for TCP-1 ring complex), also called CCT (for chaperonin containing TCP1), is an essential and conserved chaperone required for the folding and activation of 10-15% of the proteins encoded by the human genome. […] Despite its central role in cellular folding, little is known about TRiC mechanism and mode of substrate binding. Currently, no specific TRiC inhibitors are available. Given the early promise of other chaperone-directed inhibitors as cancer therapeutics (e.g. HSP90 inhibitors), inhibitors of TRiC activity may also selectively target transformed cells and have potential use as therapeutics for cancer.
To this end, a miniaturized assay was developed to screen against the Molecular Libraries Small Molecule Repository (MLSMR).
NIH Chemical Genomics Center [NCGC]
NIH Molecular Libraries Probe Centers Network [MLPCN]
Assay Submitter (PI): Judith Frydman, Stanford University
1.5 uL/well TRiC enzyme suspended in buffer (30 mM TRIS pH7.4, 100 mM KCl, 5 mM MgCl2, 1 mM DTT) was added with BioRAPTR FRD dispenser at 40 nM or 20 nM (based on the enzymatic activity of used batches) final concentration to a white solid bottom medium binding 1536-well plate (Greiner Bio-One, Monroe, NC), and quickly spanned down. 23 nl/well of compound solutions in DMSO were added with a pintool transfer (Kalypsis, San Diego, CA) at a single 76 uM final concentration. Next, 1.5 µl/well ATP was dispensed with BioraptR at 10 uM final concentration after which the plates were incubated at 37 deg C for 30 min. HTRF(R) Transcreener(R) ADP (Cisbio US, Bedford, MA) detection reagents were prepared accordingly to the protocol and dispensed into the plate (1.5 uL/well each), incubated for 30 min at ambient temperature. Then, the plates were read using Envision reader with excitation at 330nm and emission at 615nm (Eu(3)-Cryptate donor signal) and 665nm (d2 acceptor signal). The ratio of […] was calculated for each well.
A general note: TR-FRET usually uses a lanthanide donor and a delayed reading to cut background.
As to `CCN(CC)CCCOC(=O)C(O)(c1ccccc1)c1ccccc1`, the activity change is inactive: 0.487%.

With `COc1ccccc1-c1ccccn1.O=[N+]([O-])c1cc([N+](=O)[O-])c(O)c([N+](=O)[O-])c1`, the activity change is inactive: -0.739%. Consider `Cc1cccc(C)c1OP(C)(N)=O` (centres undefined), for which the activity change is inactive: -2.94%. As to `CC(C)(C)c1ccc(OP(C)(=O)Nc2ccc(SC(F)(F)F)cc2)cc1` (centres undefined), the activity change was inactive: -3.6%.

In the case of `O=[N+]([O-])c1ccc2c(c1)C=Nc1ccccc1O2`, the activity change was inactive: 3.25%. `O=[N+]([O-])c1cc([N+](=O)[O-])c(Nc2cccnc2)c([N+](=O)[O-])c1`: the activity change is inactive: -1.16%. To `COc1ccc(OP(C)(=O)Nc2cccc(F)c2)cc1` (centres undefined) belongs inactive: -0.101%; to `COc1ccccc1OP(C)(=O)Nc1cc(Cl)ccc1C` (centres undefined), inactive: 0.311%; to `Cc1cc(C)cc(OP(C)(N)=O)c1` (centres undefined), inactive: 0.825%. For `CCOC(=O)c1ccc(NP(C)(=O)Oc2ccccc2)cc1` (centres undefined), the activity change is inactive: 2.32%. To `Cc1ccc(NP(C)(=O)Oc2ccccc2)c(C)c1` (centres undefined) belongs inactive: -2.04%; to `COc1ccccc1OP(C)(=O)Nc1ccc(C)cc1` (centres undefined), inactive: 0.574%. As to `COc1ccccc1OP(C)(=O)Nc1ccccc1` (centres undefined), the activity change is inactive: 0.851%. `CP(=O)(Nc1ccccc1Br)Oc1ccccc1` (centres undefined): the activity change is inactive: -4.31%. In the case of `CP(=S)(Nn1cnnc1)Oc1ccccc1` (centres undefined), the activity change was inactive: 1.03%. Regarding `Cc1cc(C)cc(OP(C)(=O)Nc2ccc(SC(F)(F)F)cc2)c1` (centres undefined), the activity change is inactive: -1.05%. Regarding `CCc1ccc(OP(C)(=O)N2CCN(c3ccc([N+](=O)[O-])cc3)CC2)cc1` (centres undefined), the activity change was inactive: -0.15%. Turning to `CP(=O)(NC(=O)Nc1ccccc1)Oc1ccccc1` (centres undefined), the activity change is inactive: -1.55%. For the compound `CP(=O)(Oc1ccccc1)OC(c1ccccc1)C(F)(F)F` (centres undefined), the activity change was inactive: 2.23%. For `Cc1cccc(C)c1OP(C)(=O)Nc1ccc(SC(F)(F)F)cc1` (centres undefined), the activity change was inactive: 0.484%.

In the case of `CP(=O)(Nc1ccc(SC(F)(F)F)cc1)Oc1ccc(Cl)cc1` (centres undefined), the activity change is inactive: -1.17%. As for `CP(=O)(Nc1ccccn1)Oc1ccc(Cl)cc1` (centres undefined), the activity change is inactive: 3.25%. To `CCOP(C)(=S)SCC(=O)NC(C)C(=O)O` (centres undefined) belongs inactive: 1.91%; to `CCOC(=O)c1ccc(NP(C)(=O)Oc2ccc(OC)cc2)cc1` (centres undefined), inactive: -1.04%; to `O=[N+]([O-])c1cc([N+](=O)[O-])c(O)c([N+](=O)[O-])c1.c1ccc(Oc2ccncc2)cc1`, inactive: 0.0226%. Consider `CN(Cc1cccnc1)C(=O)COc1ccc(Cl)c(Cl)c1.O=[N+]([O-])c1cc([N+](=O)[O-])c(O)c([N+](=O)[O-])c1`, for which the activity change was inactive: -1.41%. With `O=[N+]([O-])c1cc([N+](=O)[O-])c(-n2nnc3ccccc32)c([N+](=O)[O-])c1`, the activity change is inactive: -1.84%.

With `Cc1nc2ccc3ccccc3c2s1.O=[N+]([O-])c1cc([N+](=O)[O-])c(O)c([N+](=O)[O-])c1`, the activity change was inactive: -1.6%. `O=[N+]([O-])c1cc([N+](=O)[O-])c(-c2cnn(-c3ccccc3)c2)c([N+](=O)[O-])c1`: the activity change was inactive: -0.933%. Turning to `O=[N+]([O-])c1cc([N+](=O)[O-])c(Nc2nnnn2CCO)c([N+](=O)[O-])c1`, the activity change was inactive: -0.416%. `CC1=C2N=C(C=C3N=C(C(C)=C4[N-][C@@](C)([C@@H]5N=C1[C@](C)(CCC(=O)NC[C@@H](C)OP(=O)([O-])O[C@H]1[C@@H](O)[C@@H](n6cnc7cc(C)c(C)cc76)O[C@@H]1CO)[C@H]5CC(N)=O)[C@@](C)(CC(N)=O)[C@@H]4CCC(N)=O)[C@@](C)(CC(N)=O)[C@@H]3CCC(N)=O)C(C)(C)[C@@H]2CCC(N)=O.[C-]#N.[Co+3]`: the activity change is inactive: -2.4%.

`CP(=O)(Nc1ccc(SC(F)(F)F)cc1)Oc1ccccc1` (centres undefined): the activity change was inactive: -1.2%. With `CCCOc1ccc(NP(C)(=O)Oc2ccc(Cl)cc2)cc1` (centres undefined), the activity change was inactive: 1.41%. Consider `COc1ccccc1OP(C)(=O)Nc1c(C)cccc1C` (centres undefined), for which the activity change was inactive: 0.807%. Consider `CN1CCCCC1COC(=O)C1(O)c2ccccc2CCc2ccccc21` (centres undefined), for which the activity change was inactive: 2.94%. To `CC1=NCCc2c1[nH]c1ccccc21.O=[N+]([O-])c1cc([N+](=O)[O-])c(O)c([N+](=O)[O-])c1` belongs inactive: -2.26%. As for `Cc1cc(C)cc(OP(C)(=O)Nc2ccc(C)cc2C)c1` (centres undefined), the activity change was inactive: -0.945%. Consider `CCOC(=O)c1ccc(NP(C)(=O)Oc2cc(C)cc(C)c2)cc1` (centres undefined), for which the activity change is inactive: -0.685%. `COc1ccccc1OP(C)(=O)Nc1cccc(Br)c1` (centres undefined): the activity change is inactive: 0.758%. As to `CP(=O)(Nc1cccc(Br)c1)Oc1ccccc1` (centres undefined), the activity change was inactive: -2.47%.

With `Cc1cc(C)cc(OP(C)(=O)Nc2ccccn2)c1` (centres undefined), the activity change was inactive: 1.53%. Consider `Cc1ccc(C)c(NP(C)(=O)Oc2ccccc2)c1` (centres undefined), for which the activity change is inactive: 1.07%. To `CC(C)c1ccc(OP(C)(=O)Nc2ccc(SC(F)(F)F)cc2)cc1` (centres undefined) belongs inactive: -1.64%; to `CP(=O)(Nc1ccccc1F)Oc1ccccc1` (centres undefined), inactive: -6.28%.
